# AlphaSeq binding of Ab-95 light chain variants to a spike HR2 peptide

Target peptide (SARS-CoV-2 spike, HR2 region): PDVDLGDISGINAS

Parent: Ab-95, a human scFv built as VH, a (GGGGS)3 linker, VL. Only the CDRs of the light chain vary.
VH: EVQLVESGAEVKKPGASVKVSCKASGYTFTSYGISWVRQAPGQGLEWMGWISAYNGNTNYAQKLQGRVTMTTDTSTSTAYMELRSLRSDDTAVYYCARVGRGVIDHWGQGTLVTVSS
VL: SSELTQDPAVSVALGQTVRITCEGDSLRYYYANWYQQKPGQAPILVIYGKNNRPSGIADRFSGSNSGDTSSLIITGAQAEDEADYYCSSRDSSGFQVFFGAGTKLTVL

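Phage display of a naive human antibody library on the peptide gave the parent. In library AAYL52, one, two or three CDR residues were substituted; doubles and triples were drawn at random. The assay is AlphaSeq: two haploid yeast populations carry antibody and antigen on their surface. The frequency of each diploid, read from paired DNA barcodes, reflects how well the two displayed proteins bind. Each replicate has its own calibration line, from reference interactions of the BCL2 family. Mating was done three times.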

Variants are written as CDR1, CDR2 and CDR3 of the light chain (limits as in the source). Parent: EGDSLRYYYAN, GKNNRPS, SSRDSSGFQVF.
Every variant below is changed at V97 of the VL (sequential numbering).
Values are apparent Kd, the geometric mean of the replicates that gave a signal; lower means stronger binding.
"nd" means that the variant was in the library but no mating with the target was seen in any replicate; the authors take this as a sign of poor binding, and no number exists.
The list is sorted by this average, lowest first, undetected variants last.
Three control strains display no target. For library AAYL52, 28% of the pairings with them gave a signal, with a median of 8.2 µM and one signal in twenty below 800 nM, so weak values seen in few replicates may be background.

The variant VGDSLRYYYAN | GKNDRPS | SSRDSSGFQQF gave 81 nM (3 of 3 replicates). For EGDSLRYYYAN | GKNNRPS | SSRDSSGFQQF, the assay gave 120 nM (3 of 3 replicates). The variant EGDSLRCSYAN | GKNNRPS | SSRDSSGFQAF gave 170 nM (3 of 3 replicates). The variant EGDSLRYYYAN | GDNNRPS | SCRDSSGFQCF gave 230 nM (3 of 3 replicates). With EGDSLRYYYAN | GCNNRPS | SSRDSSGFNPF the result was 230 nM (2 of 3 replicates). For EGDSLGYYYAN | GKNNRPS | SSRDSSGFQWF, the assay gave 260 nM (3 of 3 replicates). With EGDSLRYYYAN | GKAQRPS | SSRDSSGFQLF the result was 290 nM (3 of 3 replicates).

With EGDGLRYYYPN | GKNNRPS | SSRDSSGFQCF the result was 410 nM (3 of 3 replicates). With EGDSLRYYYAN | GKNNRPM | SSRDSSGVQAF the result was 490 nM (3 of 3 replicates). With HGDSLRYYYAN | GKNNHPS | SSRDSSGFQLF the result was 560 nM (3 of 3 replicates). For EGRSLRYYYAN | GKNNRPS | SSRDSSGFQCW, the assay gave 830 nM (3 of 3 replicates). The variant EGDPLRYYYAN | GKNDRPS | SSRDSSGFQPF showed 980 nM (3 of 3 replicates). With EGDSLRYYYAN | GKNFRPS | ISRDSSGFQCF the result was 1.6 µM (2 of 3 replicates). For WGDSLRYYYAN | GKNNRPS | SSRDSSGFQTN, the assay gave 2.0 µM (3 of 3 replicates).

The variant EGDSLRYYYAN | GKNNRPS | SWRDSSGFQFF gave 3.0 µM (2 of 3 replicates). The variant EGWSLRYYYAN | GKNNRPS | SSRDSWGFQHF showed 3.3 µM (1 of 3 replicates). The variant EGDSLNYYYAN | GKLNRPS | SSRDSSGFQNF gave 3.5 µM (1 of 3 replicates). For EGDWLRYYYAN | GKNNRPS | SSRDSSGFQRF, the assay gave 4.0 µM (2 of 3 replicates). The variant EGNSLRYYYAN | GKNKRPS | SSRDSSGFQGF gave 4.1 µM (2 of 3 replicates). The variant EGDMLRYYYAN | GKNNRPS | SSRDSSGFPSF gave 5.0 µM (1 of 3 replicates). The variant EGDYLRYYYAG | GKNNRPS | SSRDSSGFQDF gave 6.1 µM (1 of 3 replicates).

For EGDSLRYYYMN | GKNNRNS | SSRDSSGFQRF, the assay gave 6.3 µM (1 of 3 replicates). For EDDSLRYYYAN | GKNGRPS | SSRDSSGFQIF, the assay gave 6.4 µM (3 of 3 replicates). For EGDSLRHYYAN | GKNNRPS | SSRDSSPFQMF, the assay gave 8.9 µM (2 of 3 replicates). For EGDSARYYYAN | GKNNRPS | SSRDFSGFQMF, the assay gave 10 µM (3 of 3 replicates). The variant EGISLRYYYAN | GKNNRPS | SSIDSSGFQRF gave 10 µM (1 of 3 replicates). With DGDSLRYYYAN | GKNNRPS | SSRDSGGFQMF the result was 13 µM (2 of 3 replicates). The variant EGDSLRYYYAN | GKRNRPS | SSRDSSGCQTF gave 17 µM (3 of 3 replicates).

The variant SGDSLRYYYAM | GKNNRPS | SSRDSSGFQMF showed 19 µM (2 of 3 replicates). With EGDSLRYYYAN | GKNNNPS | SSNDSSGFQAF the result was 20 µM (1 of 3 replicates). With EQDSLQYYYAN | GKNNRPS | SSRDSSGFQFF the result was 27 µM (3 of 3 replicates). For EFDSLRYYYAN | GKNNRPS | SSRDSSGFQHH, the assay gave nd (0 of 3 replicates). For EGDSLNYYYAN | GKNNRPS | SSRDSSNFQHF, the assay gave nd (0 of 3 replicates). For EIDSLRYYYAN | LKNNRPS | SSRDSSGFQWF, the assay gave nd (0 of 3 replicates). The variant EGDSLRYYYAN | GKNNRPS | SSRDSSQIQIF showed nd (0 of 3 replicates).

For EGDSLRYYYAN | GKNNNPS | SSRDSSGFFRF, the assay gave nd (0 of 3 replicates). For EGDSLRYYYAN | GKNNMPS | SSRDSSGFQQF, the assay gave nd (0 of 3 replicates).

Repeated from above, the 6 best binders with a signal in all replicates:

{"CDR-L1": "VGDSLRYYYAN", "CDR-L2": "GKNDRPS", "CDR-L3": "SSRDSSGFQQF", "Kd (apparent)": "81 nM", "seen in": "3/3"}
{"CDR-L1": "EGDSLRYYYAN", "CDR-L2": "GKNNRPS", "CDR-L3": "SSRDSSGFQQF", "Kd (apparent)": "120 nM", "seen in": "3/3"}
{"CDR-L1": "EGDSLRCSYAN", "CDR-L2": "GKNNRPS", "CDR-L3": "SSRDSSGFQAF", "Kd (apparent)": "170 nM", "seen in": "3/3"}
{"CDR-L1": "EGDSLRYYYAN", "CDR-L2": "GDNNRPS", "CDR-L3": "SCRDSSGFQCF", "Kd (apparent)": "230 nM", "seen in": "3/3"}
{"CDR-L1": "EGDSLGYYYAN", "CDR-L2": "GKNNRPS", "CDR-L3": "SSRDSSGFQWF", "Kd (apparent)": "260 nM", "seen in": "3/3"}
{"CDR-L1": "EGDSLRYYYAN", "CDR-L2": "GKAQRPS", "CDR-L3": "SSRDSSGFQLF", "Kd (apparent)": "290 nM", "seen in": "3/3"}

Source: Engelhart et al. 2022 (doi:10.1038/s41597-022-01779-4), MIT Lincoln Laboratory and A-Alpha Bio; data file from the FLAb repository.